Laboratory results: US11117932B2, “Peptides for specific inhibition of Jag 1-Notch 1 pathway” (The Hong Kong Polytechnic University, priority 2018, dated 2021)
Values belong to the compound of their own block, whether it stands above or below them.

Sequences of proteins named here, by UniProt entry; tags and fusion partners are left off. Residues count along the entry.
UniProt P78504, 34-1218: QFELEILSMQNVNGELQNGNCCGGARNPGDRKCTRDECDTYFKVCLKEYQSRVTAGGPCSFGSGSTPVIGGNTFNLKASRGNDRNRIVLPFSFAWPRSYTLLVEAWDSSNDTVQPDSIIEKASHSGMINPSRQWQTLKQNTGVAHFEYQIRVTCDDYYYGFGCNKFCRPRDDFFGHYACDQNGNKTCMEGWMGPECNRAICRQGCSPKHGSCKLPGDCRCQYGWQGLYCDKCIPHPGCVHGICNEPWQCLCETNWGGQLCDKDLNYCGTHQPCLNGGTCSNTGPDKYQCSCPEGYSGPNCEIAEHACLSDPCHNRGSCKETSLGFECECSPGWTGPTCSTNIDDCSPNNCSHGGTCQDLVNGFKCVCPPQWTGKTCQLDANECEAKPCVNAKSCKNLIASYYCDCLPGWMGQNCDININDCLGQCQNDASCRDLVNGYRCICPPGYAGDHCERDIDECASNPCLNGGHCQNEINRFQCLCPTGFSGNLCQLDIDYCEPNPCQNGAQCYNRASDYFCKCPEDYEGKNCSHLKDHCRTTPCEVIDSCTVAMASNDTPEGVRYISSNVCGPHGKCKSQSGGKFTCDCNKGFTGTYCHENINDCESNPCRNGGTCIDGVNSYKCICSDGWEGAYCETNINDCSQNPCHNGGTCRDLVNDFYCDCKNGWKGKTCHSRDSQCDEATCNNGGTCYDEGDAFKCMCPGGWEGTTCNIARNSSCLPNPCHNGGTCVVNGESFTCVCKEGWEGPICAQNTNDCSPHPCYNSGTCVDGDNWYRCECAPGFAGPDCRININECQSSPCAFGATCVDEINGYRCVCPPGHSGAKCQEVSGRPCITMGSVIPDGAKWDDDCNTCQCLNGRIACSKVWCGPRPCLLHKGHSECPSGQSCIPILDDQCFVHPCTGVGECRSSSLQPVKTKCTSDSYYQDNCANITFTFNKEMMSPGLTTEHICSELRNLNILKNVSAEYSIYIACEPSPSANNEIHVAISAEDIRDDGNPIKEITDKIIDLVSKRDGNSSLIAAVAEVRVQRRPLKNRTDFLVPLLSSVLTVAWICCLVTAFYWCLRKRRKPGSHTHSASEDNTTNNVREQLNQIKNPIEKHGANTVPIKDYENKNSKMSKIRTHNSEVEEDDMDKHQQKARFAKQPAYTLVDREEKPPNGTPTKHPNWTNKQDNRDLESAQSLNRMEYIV

Tests used:
Jag1-induced NICD1 = test: Co-culture assay, Jag1-induced NICD1 level; assay type: cell-based, human; details: N1 at 50 μM
Procedure: (§1) Specificity of N1 (SEQ ID NO: 10) peptide in inhibiting different Notch ligand-induced Notch signaling was investigated using in vitro co-culture assay. HEK293T or CHO cells expressing Notch ligand (either Jag1, DLL1 or DLL4) are co-cultured with Notch1- or Notch2-expressing cells. Notch1 and Notch2 signalling can be measured by either luciferase reporter assay or by the formation of NICD1 and NICD2. […] Half inhibition is reached at between 50 to 100 μM. […] This contrasts with DAPT which affects all the above interactions.
(§2) The cleaved Notch1 (Val1744) (D3B8) rabbit monoclonal antibody (CST) and Notch2 (Cleaved Ala1734) rabbit monoclonal antibody at 1:1000 dilution were used to detect human Notch intracellular domain (NICD1) and Notch2 intracellular domain (NICD2), respectively. β-actin was detected using a mouse monoclonal antibody (Santa Cruz Biotechnology) at 1:3000 dilution.

DLL1-Notch1 signalling = test: Co-culture Notch luciferase reporter assay, DLL1-induced; assay type: cell-based, human; details: DAPT 50 μM
Procedure: as §1
(§3) HEK-293T-Jagged-1 cells were seeded in 24-well plates in triplicate per sample group, and human HCT-116 cells were seeded in one 60 mm dish. Cells were allowed to settle, and were transfected the following day after the medium was changed to be antibiotic free. HCT-116 cells were transfected with 12×CSL-Luc and Renilla-Luc, using Lipofectamine® 3000 (Invitrogen™), according to the manufacturer's instructions. After 24 hours, HCT-116 cells were scraped and 2.5×10^4 cells in 1 mL complete medium per well were added to both 24-well plates. Peptides were treated to cells with the desired concentrations. N—[N-(3,5-difluorophenacetyl)-L-alanyl]-S-phenylglycine t-butyl ester (DAPT) was used as positive control. […] Notch activity in cells expressing the 12×CSL-Luc reporter construct was measured by a luciferase assay using Dual-Luciferase® Reporter Assay System (Promega).

DLL4-Notch1 signalling = test: Co-culture Notch luciferase reporter assay, DLL4-induced; assay type: cell-based, human; details: DAPT 50 μM
Procedure: as §1, §3

S1-M1-80 cells [1] = assay type: cell-based, human
Procedure: (§4) HCT-116, HCT-15, S1-M1-80, S1, L929, HEK293T-Jagged-1 were seeded in each well of a 96-well plate with a series of concentrations (a serial dilution from 1000μM to 0.5 μM) of peptides or drugs including DAPT, Topotecan at 37° C. with 5% CO2 in a humidified incubator for 3 days. Percentage of survival was determined by MTS assay as described.

S1 = assay type: cell-based, human
Procedure: as §4

HEK-293T-Jagged-1 cells = assay type: cell-based, human
Procedure: as §4

Jag1-Notch1 signalling = test: Co-culture Notch luciferase reporter assay, Jag1-induced; assay type: cell-based, human; details: for inhibition of Jag1-induced Notch signaling compared with N1: peptides 25 μM; for inhibition of Jag1-induced Notch1 signalling, dose response: reporter assay, DAPT 50 μM
Procedure: Jag1-Notch interaction is measured using a co-culture assay with one cell line expressing the Notch ligand Jagged1 (Jag1) and a second expressing Notch (either Notch1 or Notch2). A firefly luciferase reporter plasmid with 12 upstream CBF-1 binding site was transfected into signalling-receiving cells to report on Notch signalling (FIG. 1D). Peptides were tested for their activity in inhibiting Jag1-induced Notch signalling. Complete inhibition is equivalent to the background signal seen without induction (−Jag1). […] N1 (SEQ ID NO: 10) is a 15-mer derived from the EGF-like repeat 12 of Notch1 (C467-G481). This is consistent with the structural information that EGF-like repeat 12 of Notch1 is near the MNNL domain of Jag1 (FIGS. 1B and C).
as §1
HEK-293T-Jagged-1 cells were seeded in 24-well plates in triplicate per sample group, and human HCT-116 cells were seeded in one 60 mm dish. Cells were allowed to settle, and were transfected the following day after the medium was changed to be antibiotic free. HCT-116 cells were transfected with 12×CSL-Luc and Renilla-Luc, using Lipofectamine® 3000 (Invitrogen™), according to the manufacturer's instructions. After 24 hours, HCT-116 cells were scraped and 2.5×10^4 cells in 1 mL complete medium per well were added to both 24-well plates. Peptides were treated to cells with the desired concentrations. N—[N-(3,5-difluorophenacetyl)-L-alanyl]-S-phenylglycine t-butyl ester (DAPT) was used as positive control. Cells were co-cultured for 12 hours before measure the luciferase activity. After incubation, cells were lysed with luciferase lysis buffer. Notch activity in cells expressing the 12×CSL-Luc reporter construct was measured by a luciferase assay using Dual-Luciferase® Reporter Assay System (Promega).

NICD1 [2] = test: NICD1 formation in HCT-116; assay type: cell-based, human; details: peptides 100 μM
Procedure: (§5) This panel of peptides was also tested for their cytotoxic activities against two human colorectal cell lines (HCT-116 and HCT-15). At a concentration of 100 μM, N1 (SEQ ID NO: 10) is the only peptide that is cytotoxic to HCT-116 and HCT-15 cells (FIGS. 2B and C). Notch signaling results in the release of NICD1 from the membrane-bound Notch receptor.
as §2

DLL1-induced NICD1 = test: Co-culture assay, DLL1-induced NICD1 level; assay type: cell-based, human
Procedure: as §1, §2

HCT-116 = test: Clonogenicity assay, HCT-116; assay type: cell-based, human; details: data not shown
Procedure: (§6) The procedure for colony formation assay consists of following steps. An appropriate number of cells per well were seeded on a 6-well plate in duplicate. The number of cells for seeding should be related to the aggressiveness of the treatment. The cells were incubated for 12 hours in a CO2 incubator at 37° C. and allow cells to attach to the plate. The cells were treated with peptides or (DAPT) to required concentrations. The cells were incubated in a in a CO2 incubator at 37° C. for about 10 days until cells in control well have formed colonies which are of a substantially good size (the minimum score is 100 cells per colony). After the incubation, the medium was removed and cells were rinsed with 5 ml 1×PBS (phosphate buffered saline. pH 7.2). The cells were then fixed with 1 ml methanol at room temperature for 10 min. After fixation, the cells were stained with 0.5% crystal violet solution and incubated at room temperature for 1 h. After staining, the plates were immersed in deionized water to rinse off crystal violet and air-dried at room temperature for overnight. The dry plates were pictured with scanner. The number of colonies in each well was counted by cell counter software.

HCT-15 = test: Clonogenicity assay, HCT-15; assay type: cell-based, human; details: data not shown
Procedure: as §6

human Jag1 = molecular target: T1, human Jag1 (Homo sapiens, UniProt P78504); test: In vitro pull-down assay with biotinylated peptide; assay type: binding
T1 construct: The human embryonic kidney cells 293T stably expressed full length human Jagged-1 (HEK293T-Jagged-1); expressed in transfected cells
Procedure: HEK293T-Jagged1 cells were lysed in 1×RIPA lysis buffer (20 mMTris-HCl (pH 7.5) 150 mM NaCl, 1 mM Na2EDTA, 1 mM EGTA, 1% NP-40, 1% sodium deoxycholate, 2.5 mM sodium pyrophosphate, 1 mM β-glycerophosphate, 1 mM Na3VO4). One microgram of biotin-labeled peptides and streptavidin-conjugated magnetic beads (Promega) was used to pull down human Jag1. The resulting proteins were resolved on SDS-PAGE and detected with an anti-Jagged1 antibody.

DLL4-induced NICD1 = test: Co-culture assay, DLL4-induced NICD1 level; assay type: cell-based, human
Procedure: as §1, §2

S1-M1-80 cells [3] = test: Clonogenicity assay, S1-M1-80; assay type: cell-based, human
Procedure: as §6

NICD2 = test: Co-culture assay, NICD2 formation (Jag1-Notch2); assay type: cell-based, human
Procedure: as §1, §2

NICD1 [4] = test: NICD1 formation in HCT-15; assay type: cell-based, human; details: peptides 100 μM
Procedure: as §5, §2

Structure (SMILES): CC[C@H](C)[C@H](NC(=O)[C@H](CCC(N)=O)NC(=O)[C@H](CC(=O)O)NC(=O)[C@H](CC(C)C)NC(=O)[C@H](CS)NC(=O)[C@@H](N)CC(C)C)C(=O)NCC(=O)N[C@@H](CCC(=O)O)C(=O)N[C@@H](Cc1ccccc1)C(=O)N[C@@H](CCC(N)=O)C(=O)N[C@@H](CS)C(=O)N[C@H](C(=O)N[C@@H](CS)C(=O)N[C@@H](CCSC)C(=O)N1CCC[C@H]1C(=O)NCC(=O)O)[C@@H](C)CC [Peptide N1T466L, LCLDQIGEFQCICMPG]
Jag1-induced NICD1 level (Jag1-induced NICD1): significantly decreased expression level of NICD1
inhibition of DLL1-Notch1 signalling (DLL1-Notch1 signalling): did not interfere
inhibition of DLL4-Notch1 signalling (DLL4-Notch1 signalling): did not interfere
IC50 (S1-M1-80 cells [1]): 8.2 ± 0.3 µM
IC50 (S1): > 50 µM
IC50 (HEK-293T-Jagged-1 cells): > 100 µM
inhibition of Jag1-induced Notch signaling compared with N1 (Jag1-Notch1 signalling): biggest improvement
inhibition of Jag1-induced Notch1 signalling, dose response (Jag1-Notch1 signalling): inhibited Jag1-induced Notch1 signaling in dose dependent manner

Structure (SMILES): CC[C@H](C)[C@H](NC(=O)[C@H](CCC(N)=O)NC(=O)[C@H](CC(=O)O)NC(=O)[C@H](CC(C)C)NC(=O)[C@H](CS)NC(=O)[C@@H](N)CCC(N)=O)C(=O)NCC(=O)N[C@@H](CCC(=O)O)C(=O)N[C@@H](Cc1ccccc1)C(=O)N[C@@H](CCC(N)=O)C(=O)N[C@@H](CS)C(=O)N[C@H](C(=O)N[C@@H](CS)C(=O)N[C@@H](CCSC)C(=O)N1CCC[C@H]1C(=O)NCC(=O)O)[C@@H](C)CC [Peptide N1T466Q, QCLDQIGEFQCICMPG]
IC50 (S1-M1-80 cells [1]): > 50 µM
IC50 (S1): > 100 µM
inhibition of Jag1-induced Notch signaling compared with N1 (Jag1-Notch1 signalling): slight improvement

Structure (SMILES): CC[C@H](C)[C@H](NC(=O)[C@H](CCC(N)=O)NC(=O)[C@H](CC(=O)O)NC(=O)[C@H](CC(C)C)NC(=O)[C@H](CS)NC(=O)[C@@H](N)[C@@H](C)O)C(=O)NCC(=O)N[C@@H](CCC(=O)O)C(=O)N[C@@H](Cc1ccccc1)C(=O)N[C@@H](CCC(N)=O)C(=O)N[C@@H](CS)C(=O)N[C@H](C(=O)N[C@@H](CS)C(=O)N[C@@H](CCSC)C(=O)N1CCC[C@H]1C(=O)NCC(=O)O)[C@@H](C)CC [Peptide N1T466, TCLDQIGEFQCICMPG]
IC50 (S1-M1-80 cells [1]): > 50 µM
IC50 (S1): > 100 µM
inhibition of Jag1-induced Notch signaling compared with N1 (Jag1-Notch1 signalling): slight improvement

Structure (SMILES): CC[C@H](C)[C@H](NC(=O)[C@H](CCC(N)=O)NC(=O)[C@H](CC(=O)O)NC(=O)[C@H](CC(C)C)NC(=O)[C@H](CS)NC(=O)[C@@H](N)CCCCN)C(=O)NCC(=O)N[C@@H](CCC(=O)O)C(=O)N[C@@H](Cc1ccccc1)C(=O)N[C@@H](CCC(N)=O)C(=O)N[C@@H](CS)C(=O)N[C@H](C(=O)N[C@@H](CS)C(=O)N[C@@H](CCSC)C(=O)N1CCC[C@H]1C(=O)NCC(=O)O)[C@@H](C)CC [Peptide N1T466K, KCLDQIGEFQCICMPG]
IC50 (S1-M1-80 cells [1]): > 50 µM
IC50 (S1): > 100 µM
inhibition of Jag1-induced Notch signaling compared with N1 (Jag1-Notch1 signalling): slight improvement

The next lines start with results.

IC50 (S1-M1-80 cells [1]): > 100 µM
IC50 (S1): > 100 µM
Structure (SMILES): CC[C@H](C)[C@H](NC(=O)[C@H](CCC(N)=O)NC(=O)[C@H](CC(=O)O)NC(=O)[C@H](CC(C)C)NC(=O)[C@@H](N)CS)C(=O)O [Peptide N110, CLDQI]

binding to Jag1 (immunoprecipitation of Jag1 from HEK293T-Jagged1 cells) (human Jag1): can be immunoprecipitated
inhibition of DLL1-Notch1 signalling (DLL1-Notch1 signalling): cannot inhibit
inhibition of DLL4-Notch1 signalling (DLL4-Notch1 signalling): cannot inhibit
IC50 (S1-M1-80 cells [1]): 16.3 ± 0.6 µM
IC50 (S1): > 50 µM
disruption of Jag1-induced Notch signalling (reporter) (Jag1-Notch1 signalling; screening, peptides 100 μM): can disrupt Jag1-Notch1 signalling
Structure (SMILES): CC[C@H](C)[C@H](NC(=O)[C@H](CCC(N)=O)NC(=O)[C@H](CC(=O)O)NC(=O)[C@H](CC(C)C)NC(=O)[C@@H](N)CS)C(=O)NCC(=O)N[C@@H](CCC(=O)O)C(=O)N[C@@H](Cc1ccccc1)C(=O)N[C@@H](CCC(N)=O)C(=O)N[C@@H](CS)C(=O)N[C@H](C(=O)N[C@@H](CS)C(=O)N[C@@H](CCSC)C(=O)N1CCC[C@H]1C(=O)NCC(=O)O)[C@@H](C)CC [Peptide N1, CLDQIGEFQCICMPG]
NICD1 formation in HCT-116 (NICD1 [2]): almost complete elimination of NICD1
Jag1-induced NICD1 level (Jag1-induced NICD1): markedly reduced
DLL1-induced NICD1 level (DLL1-induced NICD1): no effect
colony formation activity in HCT-116 (HCT-116): reduced the colony formation activity
colony formation activity in HCT-15 (HCT-15): reduced the colony formation activity
DLL4-induced NICD1 level (DLL4-induced NICD1): no effect
colony formation of S1-M1-80, dose response (S1-M1-80 cells [3]): reduced the colony formation activity
NICD2 formation (NICD2): does not affect NICD2 formation
inhibition of Jag1-induced Notch1 signalling, dose response (Jag1-Notch1 signalling): inhibited Jag1-induced Notch1 signalling in a dose-dependent manner
NICD1 formation in HCT-15 (NICD1 [4]): almost complete elimination of NICD1
